Measured values from US20190345146A1, “NITROGEN CONTAINING BICYCLIC DERIVATIVES FOR TREATING PAIN AND PAIN RELATED CONDITIONS” (ESTEVE PHARMACEUTICALS, S.A., priority 2016, published 2019).

The chains behind the UniProt entries cited, without tags or fusion partners. Where a name states a change or a piece, a line headed by the entry shows the natural chain unless it says otherwise. Residues count along the entry.
UniProt P54289, 25-1103 limits assumed: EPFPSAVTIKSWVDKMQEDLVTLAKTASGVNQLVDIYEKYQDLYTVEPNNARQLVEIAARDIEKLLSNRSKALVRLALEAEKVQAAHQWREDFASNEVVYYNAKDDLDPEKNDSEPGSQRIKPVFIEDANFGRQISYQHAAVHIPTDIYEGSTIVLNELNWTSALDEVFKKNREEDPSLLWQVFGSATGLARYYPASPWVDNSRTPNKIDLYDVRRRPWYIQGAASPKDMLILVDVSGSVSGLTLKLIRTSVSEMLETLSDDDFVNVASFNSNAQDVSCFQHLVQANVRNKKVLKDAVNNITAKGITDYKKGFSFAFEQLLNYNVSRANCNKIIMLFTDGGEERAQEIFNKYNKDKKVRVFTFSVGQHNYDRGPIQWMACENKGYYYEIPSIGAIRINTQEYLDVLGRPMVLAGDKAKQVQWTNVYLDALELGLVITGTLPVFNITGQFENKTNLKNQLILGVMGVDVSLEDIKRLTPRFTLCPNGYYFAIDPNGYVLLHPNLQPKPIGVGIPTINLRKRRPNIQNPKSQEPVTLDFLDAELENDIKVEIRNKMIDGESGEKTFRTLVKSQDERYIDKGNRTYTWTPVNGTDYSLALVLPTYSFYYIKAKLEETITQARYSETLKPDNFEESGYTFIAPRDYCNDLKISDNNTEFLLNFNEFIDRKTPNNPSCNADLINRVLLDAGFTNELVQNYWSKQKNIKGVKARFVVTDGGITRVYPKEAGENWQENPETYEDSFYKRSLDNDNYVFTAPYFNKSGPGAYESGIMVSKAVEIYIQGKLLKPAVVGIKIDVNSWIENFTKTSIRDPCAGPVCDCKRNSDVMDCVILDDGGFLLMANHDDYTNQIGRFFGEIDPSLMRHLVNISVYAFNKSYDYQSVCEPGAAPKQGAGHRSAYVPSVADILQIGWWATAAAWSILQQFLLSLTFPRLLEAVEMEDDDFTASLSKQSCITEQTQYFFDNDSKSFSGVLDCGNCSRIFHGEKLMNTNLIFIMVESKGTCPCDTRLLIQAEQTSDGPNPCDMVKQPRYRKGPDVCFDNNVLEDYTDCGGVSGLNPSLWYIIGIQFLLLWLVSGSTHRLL

Target: human α2δ-1 subunit of Cav2.2 calcium channel (Homo sapiens, UniProt P54289)
Test: Binding assay to human α2δ-1 subunit of Cav2.2 calcium channel ([3H]-Gabapentin)
Settings: read-out: Ki(nM) alpha2delta Hum, Table 1, human α2δ-1 enriched membranes
Description: • Binding assay to human α2δ-1 subunit of Cav2.2 calcium channel.
Human α2δ-1 enriched membranes (2.5 μg) were incubated with 15 nM of radiolabeled [3H]-Gabapentin in assay buffer containing Hepes-KOH 10 mM, pH 7.4.
NSB (non specific binding) was measured by adding 10 μM pregabalin. The binding of the test compound was measured at five different concentrations. After 60 min of incubation at 27° C., the binding reaction was terminated by filtering through Multiscreen GF/C (Millipore) presoaked in 0.5% polyethyleneimine in Vacuum Manifold Station, followed by 3 washes with ice-cold filtration buffer containing 50 mM Tris-HCl, pH 7.4.
Filter plates were dried at 60° C. for 1 h and 30 μl of scintillation cocktail were added to each well before radioactivity reading.
Readings were performed in a Trilux 1450 Microbeta radioactive counter (Perkin Elmer). • Binding assay to human norepinephrine transporter (NET).

Row | SMILES | Ki [nM]
1 | CNCCC(Oc1cccc2ncncc12)c1cccs1 (stereo not drawn) | 100 to 500
2 | CNCC[C@@H](Oc1cccc2ncn(C)c(=O)c12)c1cccs1 | < 100
3 | CNCC[C@H](Oc1cccc2ncn(C)c(=O)c12)c1cccs1 | > 3000
